Sequences of proteins named here, by UniProt entry; tags and fusion partners are left off. Residues count along the entry.
UniProt P06276, 29-602: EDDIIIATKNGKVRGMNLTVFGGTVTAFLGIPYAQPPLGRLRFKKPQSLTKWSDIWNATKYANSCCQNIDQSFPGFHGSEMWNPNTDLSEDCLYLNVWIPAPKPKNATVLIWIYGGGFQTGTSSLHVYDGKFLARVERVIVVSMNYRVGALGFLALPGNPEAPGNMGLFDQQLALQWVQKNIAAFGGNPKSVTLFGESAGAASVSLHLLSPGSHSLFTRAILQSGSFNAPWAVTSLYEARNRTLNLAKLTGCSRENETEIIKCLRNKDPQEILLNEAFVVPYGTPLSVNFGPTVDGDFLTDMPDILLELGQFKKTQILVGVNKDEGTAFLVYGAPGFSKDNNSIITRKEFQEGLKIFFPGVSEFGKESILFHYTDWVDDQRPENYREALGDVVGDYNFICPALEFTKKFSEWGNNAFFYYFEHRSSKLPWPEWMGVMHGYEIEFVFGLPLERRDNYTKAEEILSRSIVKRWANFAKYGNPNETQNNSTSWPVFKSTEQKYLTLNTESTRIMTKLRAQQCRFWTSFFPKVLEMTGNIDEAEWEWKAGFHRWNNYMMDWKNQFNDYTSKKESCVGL

In patent US20230193226A1, “BUTYRYLCHOLI[…] AN ENHANCED ABILITY TO HYDROLYZE ACYL GHRELIN” (priority 2014, published 2023):

Target: T1, human BChE (Homo sapiens, UniProt P06276)
T1 construct: Dr. O. Lockridge (sample obtained from them, not a commercial vendor)
Experiment: Inhibition of human BChE hydrolysis of acyl-ghrelin and BTCh by inhibitors
Type: biochemical
Protocol: FIGS. 3A-3D. […] (3B) One ng of human acyl-ghrelin was treated with different amount of human BChE. After 20 hours of incubation, residual acyl ghrelin and desacyl ghrelin in each reaction were determined. (3C) One ng of human acyl ghrelin was treated with 10 µg of human BChE and % decrease in residual acyl ghrelin was measured as a function of time. […] The hydrolysis activities with butyrylthiocholine (BTCh) or acyl-ghrelin as substrates were determined by Ellman assay and acyl-ghrelin immunoassay, respectively. Data are normalized to the no inhibitor controls. All values are means ± SD, each with duplicate samples (n=3).
A sample of purified human BChE was obtained from Dr. O. Lockridge and assessed by gel electrophoresis (FIG. 3A).

CC(C)NP(=O)(NC(C)C)OP(=O)(NC(C)C)NC(C)C [iso-OMPA]
inhibition of acyl ghrelin hydrolysis by human BChE (10 µg human BChE, 10 minutes with inhibitor, then 1 ng acyl ghrelin, 20 hours, acyl-ghrelin immunoassay): blocked
inhibition of butyrylthiocholine (BTCh) hydrolysis by human BChE (Ellman assay, iso-OMPA 10 or 100 µM): blocks
